Measured values: publication PMC5775417 (Scientific Reports, 2018)

Amino acid sequences for entries named in this document (tags omitted).
UniProt P14416, whole entry D80A: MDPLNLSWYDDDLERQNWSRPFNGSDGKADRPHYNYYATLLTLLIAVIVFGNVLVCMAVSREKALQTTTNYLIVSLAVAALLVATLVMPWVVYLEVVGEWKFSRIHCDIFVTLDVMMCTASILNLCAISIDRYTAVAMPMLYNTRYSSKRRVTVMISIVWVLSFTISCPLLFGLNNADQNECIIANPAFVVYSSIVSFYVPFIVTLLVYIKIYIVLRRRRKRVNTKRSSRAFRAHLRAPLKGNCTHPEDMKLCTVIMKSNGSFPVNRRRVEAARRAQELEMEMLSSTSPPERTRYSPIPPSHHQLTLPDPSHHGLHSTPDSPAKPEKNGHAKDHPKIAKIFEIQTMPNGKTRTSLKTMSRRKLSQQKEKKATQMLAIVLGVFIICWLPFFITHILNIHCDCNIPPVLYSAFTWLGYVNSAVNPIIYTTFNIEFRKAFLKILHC
UniProt P14416, whole entry E95A: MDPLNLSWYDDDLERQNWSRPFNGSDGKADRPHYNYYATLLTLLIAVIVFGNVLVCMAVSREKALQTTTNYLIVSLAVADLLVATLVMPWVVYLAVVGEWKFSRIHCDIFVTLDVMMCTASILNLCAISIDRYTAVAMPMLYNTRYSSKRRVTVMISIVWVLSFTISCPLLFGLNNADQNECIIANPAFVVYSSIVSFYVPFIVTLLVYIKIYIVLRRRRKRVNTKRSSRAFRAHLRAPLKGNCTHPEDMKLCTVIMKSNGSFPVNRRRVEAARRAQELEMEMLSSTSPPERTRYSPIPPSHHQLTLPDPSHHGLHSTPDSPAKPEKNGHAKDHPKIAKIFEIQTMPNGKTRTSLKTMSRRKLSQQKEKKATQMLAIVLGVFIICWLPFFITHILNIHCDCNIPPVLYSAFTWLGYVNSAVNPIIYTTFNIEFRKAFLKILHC
UniProt P14416, whole entry: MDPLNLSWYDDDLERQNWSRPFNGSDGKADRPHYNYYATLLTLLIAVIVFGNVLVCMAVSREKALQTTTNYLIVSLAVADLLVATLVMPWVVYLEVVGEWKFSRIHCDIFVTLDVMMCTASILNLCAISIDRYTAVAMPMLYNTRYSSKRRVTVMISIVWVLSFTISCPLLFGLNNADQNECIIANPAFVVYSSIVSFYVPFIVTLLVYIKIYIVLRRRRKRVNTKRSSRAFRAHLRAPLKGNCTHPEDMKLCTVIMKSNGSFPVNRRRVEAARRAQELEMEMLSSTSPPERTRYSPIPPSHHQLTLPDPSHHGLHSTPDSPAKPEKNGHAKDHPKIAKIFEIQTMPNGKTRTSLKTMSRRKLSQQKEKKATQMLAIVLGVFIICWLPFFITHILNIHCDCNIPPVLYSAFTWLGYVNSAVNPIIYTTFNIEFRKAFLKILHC

Tests used:
Assay in all cases: [3H]spiperone saturation binding, membranes of Flp-In CHO cells
[1] = biological target: T1, D80^2.50A c-myc-D2LR (Homo sapiens, UniProt P14416, D80A)
T1 construct: expressed in transfected cells
Protocol: (§1) Flp-In CHO cells (Invitrogen) were transfected with the pOG44 vector encoding Flp recombinase and the pDEST vector encoding the wild-type or mutant c-Myc-D2LR at a ratio of 9:1 using polyethylenimine (Polysciences, Warrington, PA) as transfection reagent. 24 hours after transfection the cells were subcultured and the medium was supplemented with 700 μg/ml hygromycin B as selection agent to obtain cells stably expressing the c-Myc-D2LR. FlpIn CHO cells stably expressing the wild-type or mutant c-Myc-D2LR were grown in Dulbecco’s modified Eagle’s medium (DMEM) supplemented with 10% fetal bovine serum and 200 µg/mL of Hygromycin-B, and maintained at 37 °C in a humidified incubator containing 5% CO2. When cells were approximately 90% confluent, they were harvested and centrifuged (300 g, 3 min, 4 °C). The resulting pellet was resuspended in assay buffer either in the presence (20 mM HEPES, 100 mM NaCl, 6 mM MgCl2, 1 mM EGTA, and 1 mM EDTA, pH 7.4) or absence (20 mM HEPES, 100 mM NMDG, 6 mM MgCl2, 1 mM EGTA, and 1 mM EDTA, pH 7.4) of sodium ions. The centrifugation procedure was repeated. The intact cell pellet was then resuspended in assay buffer and homogenized using a Polytron homogenizer for three 10 s intervals on the maximum setting, with 30 s periods on ice between each burst. The homogenate volume was brought up to 30 mL, the sample was centrifuged (350 g, 5 min, 4 °C), the pellet was discarded, and the supernatant was centrifuged at 30 000 g for 1 hr at 4 °C. The resulting pellet was resuspended in 5 mL of assay buffer, and the protein content was determined using the bicinchoninic acid assay (BCA assay). The homogenate was then separated into 500 µl aliquots and stored at −80 °C until it was required for binding assays.
(§2) Binding was terminated by fast-flow filtration over GF/B membranes using a Brandel harvester followed by three washes with ice-cold 0.9% NaCl. Bound radioactivity was measured in a Tri-Carb 2900TR liquid scintillation counter (PerkinElmer).

[2] = biological target: T2, E95^2.65A c-myc-D2LR (Homo sapiens, UniProt P14416, E95A)
T2 construct: expressed in transfected cells
Protocol: as §1, §2

[3] = biological target: T3, WT c-myc-D2LR (Homo sapiens, UniProt P14416)
T3 construct: expressed in transfected cells
Protocol: as §1, §2

[4] = 100 mM NaCl, listed as [^3H]spiperone
[5] = 100 mM NMDG (no Na+), listed as [^3H]spiperone

`O=C(CCCN1CCC2(CC1)C(=O)NCN2c1ccccc1)c1ccc(F)cc1` [[ ^3 H]spiperone, [^3H]spiperone] was tested, and the “Bmax (number of receptors labelled)” value ([1]; 100 mM NMDG (no Na+)) was 192.4 ± 10.7 fmol/mg, the “Bmax (number of receptors labelled)” value ([1]; 100 mM NaCl) was 215.4 ± 7.0 fmol/mg and the “Bmax (number of receptors labelled)” value [1, 4] was 215.4 fmol/mg. For the same molecule, the “Bmax (number of receptors labelled)” value ([2]; 100 mM NMDG (no Na+)) was 196.6 ± 8.8 fmol/mg, the “Bmax (number of receptors labelled)” value [2, 5] was 196.6 fmol/mg and the “Bmax (number of receptors labelled)” value ([2]; 100 mM NaCl) was 225.5 ± 27.2 fmol/mg. The “Bmax (number of receptors labelled)” value [2, 4] was 225.5 fmol/mg, the “Bmax (number of receptors labelled)” value ([3]; 100 mM NMDG (no Na+)) was 216.1 ± 10.8 fmol/mg and the “Bmax (number of receptors labelled)” value [3, 5] was 216.1 fmol/mg. The “Bmax (number of receptors labelled)” value ([3]; 100 mM NaCl) was 237.0 ± 6.7 fmol/mg and the “Bmax (number of receptors labelled)” value [3, 4] was 237.0 fmol/mg.
